The target in one experiment is Human factor Xa (Homo sapiens, UniProt P00742). The experiment in a line: Xa Assay. The note with it: read-out: IC50 or % Inhibition Factor Xa (30 µM); cells given as a plain number (IC50).
In another experiment the target is TF-VIIa (Homo sapiens, UniProt P08709). The experiment in a line: TF-VIIa Assay. It counts as biochemical. To be noted: read-out: IC50 or % Inhibition TF-VIIa (30 µM); cells given as a plain number (IC50).
Experiment [1] addresses Trypsin (type IX from porcine pancreas) (Sus scrofa, UniProt P00761).

Amino acid sequences for entries named in this document (tags omitted). Residues count along the entry.
UniProt P00742, 41-179 limits assumed: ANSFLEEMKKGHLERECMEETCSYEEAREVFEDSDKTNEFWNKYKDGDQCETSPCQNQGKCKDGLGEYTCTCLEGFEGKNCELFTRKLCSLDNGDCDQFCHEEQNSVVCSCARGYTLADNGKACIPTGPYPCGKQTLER
UniProt P00742, 235-488 limits assumed: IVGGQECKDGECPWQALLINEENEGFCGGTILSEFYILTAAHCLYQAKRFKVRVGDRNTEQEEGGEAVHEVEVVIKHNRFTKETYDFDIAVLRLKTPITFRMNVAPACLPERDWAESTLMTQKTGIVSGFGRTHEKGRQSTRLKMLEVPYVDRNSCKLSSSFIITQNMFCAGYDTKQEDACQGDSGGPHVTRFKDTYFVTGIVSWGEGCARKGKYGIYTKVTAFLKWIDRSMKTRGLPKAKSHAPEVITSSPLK
UniProt P08709, 61-212 limits assumed: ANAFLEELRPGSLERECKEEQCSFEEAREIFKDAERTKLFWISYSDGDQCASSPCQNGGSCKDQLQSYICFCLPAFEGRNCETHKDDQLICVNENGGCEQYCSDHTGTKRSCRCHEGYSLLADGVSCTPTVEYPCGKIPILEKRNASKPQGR
UniProt P08709, 213-466 limits assumed: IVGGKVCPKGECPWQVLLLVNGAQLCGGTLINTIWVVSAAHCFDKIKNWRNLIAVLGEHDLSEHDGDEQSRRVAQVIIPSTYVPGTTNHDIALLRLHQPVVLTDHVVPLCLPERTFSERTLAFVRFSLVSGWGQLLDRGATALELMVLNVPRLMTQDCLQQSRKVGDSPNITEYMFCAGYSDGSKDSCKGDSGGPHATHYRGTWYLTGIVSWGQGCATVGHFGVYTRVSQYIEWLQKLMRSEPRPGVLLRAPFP
UniProt P00761, 9-231 limits assumed: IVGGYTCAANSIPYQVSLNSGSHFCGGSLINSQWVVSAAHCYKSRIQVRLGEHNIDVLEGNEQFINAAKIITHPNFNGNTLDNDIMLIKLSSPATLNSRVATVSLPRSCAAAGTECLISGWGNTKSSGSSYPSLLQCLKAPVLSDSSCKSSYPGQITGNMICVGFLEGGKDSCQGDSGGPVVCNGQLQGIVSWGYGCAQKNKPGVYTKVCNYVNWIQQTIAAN
UniProt P13726, 33-251 partner limits assumed: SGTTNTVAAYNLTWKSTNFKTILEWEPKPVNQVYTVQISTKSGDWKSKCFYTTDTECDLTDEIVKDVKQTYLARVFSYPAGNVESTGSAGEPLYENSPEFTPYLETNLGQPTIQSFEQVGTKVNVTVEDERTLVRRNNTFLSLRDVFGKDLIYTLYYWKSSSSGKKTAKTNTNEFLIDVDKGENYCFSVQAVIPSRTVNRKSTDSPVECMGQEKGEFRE

The IC50 is the midpoint of a concentration-inhibition curve.

For `N=C(N)c1ccc(CNC(=O)Cn2c(-c3cccc(Br)c3)c(Cl)nc(NCCc3ccc(Cl)c(Cl)c3)c2=O)cc1`, the IC50 on Human factor Xa was over 30 µM; at TF-VIIa it was 4.8 µM.

Regarding `N=C(N)c1ccc(CNC(=O)Cn2c(-c3ccccc3F)c(Cl)nc(NCCc3ccc(Cl)c(Cl)c3)c2=O)cc1`, the IC50 in experiment [1] was 1800 nM; on Human factor Xa it was over 30 µM; on TF-VIIa, 3.1 µM.

On to `N=C(N)c1ccc(CNC(=O)Cn2c(-c3ccccc3)c(Cl)nc(NCc3ccc4c(c3)OCO4)c2=O)cc1`, for which the IC50 at TF-VIIa was determined as 10.8 µM.

`N=C(N)c1ccc(CNC(=O)Cn2c(-c3ccccc3C(F)(F)F)c(Cl)nc(NCCc3ccc(Cl)c(Cl)c3)c2=O)cc1`: the 50% inhibitory concentration (IC50) is 4100 nM in experiment [1], over 30 µM on Human factor Xa and 4.1 µM at TF-VIIa.

With `COc1cccc(-c2c(Cl)nc(NCCc3ccc(Cl)c(Cl)c3)c(=O)n2CC(=O)NCc2ccc(C(=N)N)cc2)c1`, the 50% inhibitory concentration (IC50) in experiment [1] was 1000 nM; on Human factor Xa, over 30 µM; at TF-VIIa, 2.6 µM.

Regarding `COc1ccccc1-c1c(Cl)nc(NCCc2ccc(Cl)c(Cl)c2)c(=O)n1CC(=O)NCc1ccc(C(=N)N)cc1`, the figures for the IC50 (in experiment [1]; on Human factor Xa; on TF-VIIa) were 1400 nM, over 30 µM and 1.8 µM, respectively.

Take `N=C(N)c1ccc(CNC(=O)Cn2c(-c3ccccc3Cl)c(Cl)nc(NCCc3ccc(Cl)c(Cl)c3)c2=O)cc1`: the IC50 is 2400 nM in experiment [1], over 30 µM on Human factor Xa and 4.4 µM on TF-VIIa.

For the compound `N=C(N)c1ccc(CNC(=O)Cn2c(-c3ccc(F)cc3)c(Cl)nc(NCCc3ccc(Cl)c(Cl)c3)c2=O)cc1`, the IC50 is 1100 nM in experiment [1], over 30 µM on Human factor Xa and 6.8 µM on TF-VIIa.

As to `CCc1c(Cl)nc(NCc2ccccc2)c(=O)n1CC(=O)NCc1ccc(C(=N)N)cc1`, the IC50 turned out to be 670 nM in experiment [1] and 4.73 µM at TF-VIIa.

With `N=C(N)c1ccc(CNC(=O)Cn2c(-c3cccc(C(F)(F)F)c3)c(Cl)nc(NCCc3ccc(Cl)c(Cl)c3)c2=O)cc1`, the figures for the IC50 (in experiment [1]; at Human factor Xa; on TF-VIIa) were 1600 nM, over 30 µM and 3.6 µM, respectively.

Regarding `N=C(N)c1ccc(CCNC(=O)Cn2c(-c3ccccc3)c(Cl)nc(NCCc3ccccc3)c2=O)cc1`, in experiment [1], the IC50 turned out to be 7000 nM.

On to `N=C(N)c1ccc(CNC(=O)Cn2c(-c3ccc(C(F)(F)F)cc3)c(Cl)nc(NCCc3ccc(Cl)c(Cl)c3)c2=O)cc1`, for which, on Human factor Xa, the IC50 is over 30 µM.

With `N=C(N)c1ccc(CNC(=O)Cn2c(-c3cccc(F)c3)c(Cl)nc(NCCc3ccc(Cl)c(Cl)c3)c2=O)cc1`, the results for the IC50 on Human factor Xa and at TF-VIIa were over 30 µM and 2.9 µM, respectively.

Source of the values: patent EP1202975B1, “SUBSTITUTED POLYCYCLIC ARYL AND HETEROARYL PYRAZINONES USEFUL FOR SELECTIVE INHIBITION OF THE COAGULATION CASCADE” (Pharmacia Corporation, priority 1999, dated 2000).
